Literature values in publication PMC4956498 (Planta medica, 2016).

Tested on: HT-29 human colon cancer cell line
Details: cited from earlier work

Row | Compound | Cytotoxicity toward HT-29 cells (in words) | IC50 (read-out: Cytotoxicity IC50 against HT-29 cells)
1 | C=C(C)[C@H]1Cc2c(ccc3c2O[C@@H]2COc4cc(OC)c(OC)cc4[C@@H]2C3=O)O1 [Compound 7, (−)-rotenone] | potent activity | 
2 | 3-hydroxyisomillettone [reference compound] |  | > 20 µM
3 | COc1cc2c(cc1OC)[C@@H]1C(=O)c3ccc4c(c3O[C@@H]1CO2)C=CC(C)(C)O4 [deguelin, reference compound] | inactive | 
4 | (−)-2,3-dehydrorotenone [Compound 10] | inactive | 
5 | (−)-13-homo-13-oxa-2,3-dehydrorotenone [Compound 9] | inactive | 
6 | COc1cc2c(cc1OC)[C@]1(O)C(=O)c3ccc4c(c3O[C@@H]1CO2)C=CC(C)(C)O4 [tephrosin, reference compound] | inactive | 
7 | (−)-3-hydroxyrotenone [Compound 6] | potent activity | 
8 | COc1cc2c(cc1OC)-c1c(oc3c4c(ccc3c1=O)OC(C)(C)C=C4)CO2 [dehydrodeguelin, reference compound] | inactive | 
